Earlier results in PMC4467585 (Journal of Thoracic Oncology, 2015).

Tests used:
ALK-rearranged NSCLC [1] = conditions: Japanese patients, ALK inhibitor naive; cited from earlier work
ALK-rearranged NSCLC [2] = conditions: cited from earlier work

SMILES	ORR (ALK-rearranged NSCLC [1]) [%]	Overall response rates (ORRs) (ALK-rearranged NSCLC [2]; advanced ALK-rearranged NSCLC, across all studies)	Median PFS (ALK-rearranged NSCLC [2]; open-label phase III study, previously treated patients) [mo]
CCc1cc2c(cc1N1CCC(N3CCOCC3)CC1)C(C)(C)c1[nH]c3cc(C#N)ccc3c1C2=O [Alectinib]	93.5	–	–
C[C@@H](Oc1cc(-c2cnn(C3CCNCC3)c2)cnc1N)c1c(Cl)ccc(F)c1Cl [Crizotinib]	–	approximately 60%	8
